This assay deals with T1, 11-beta-hydroxysteroid dehydrogenase type 2 (Mus musculus, UniProt P51661).
T1 sequence (P51661 whole entry): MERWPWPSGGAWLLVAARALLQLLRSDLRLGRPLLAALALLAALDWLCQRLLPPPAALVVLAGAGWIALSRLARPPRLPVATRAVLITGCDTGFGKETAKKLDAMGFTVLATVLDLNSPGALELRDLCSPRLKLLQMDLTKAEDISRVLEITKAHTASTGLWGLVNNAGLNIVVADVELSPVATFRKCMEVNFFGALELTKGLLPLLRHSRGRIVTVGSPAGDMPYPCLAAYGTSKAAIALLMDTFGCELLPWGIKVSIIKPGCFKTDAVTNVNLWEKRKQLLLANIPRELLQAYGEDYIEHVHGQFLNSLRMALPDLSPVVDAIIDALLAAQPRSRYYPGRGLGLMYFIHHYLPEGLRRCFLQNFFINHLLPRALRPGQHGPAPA
In words: Inhibition of mouse 11beta-HSD2 by SPA.
As for `CNC(=O)NC(=O)[C@]12CC3CC(C1)[C@@H](NC(=O)C(C)(C)Oc1ccc(Cl)cc1)C(C3)C2`, the IC50 – broadly, the point on the concentration scale where inhibition reaches its midpoint – was 16 µM. Then `CC(C)(Oc1ccc(Cl)cc1)C(=O)N[C@H]1C2CC3CC1C[C@](C(=O)NCc1ccc(-c4nnn[nH]4)cc1)(C3)C2`, with 6.2 µM. In the case of `CC(C)(Oc1ccccc1)C(=O)N[C@H]1C2CC3CC1C[C@](C(N)=O)(C3)C2`, inhibition was half-maximal at 40 µM (IC50). `CC(C)(Oc1ccc(Cl)cc1)C(=O)N[C@H]1C2CC3CC1C[C@](CO)(C3)C2` showed an IC50 greater than 100 µM. In turn, `CC(C)(Oc1ccc(Cl)cc1)C(=O)N[C@H]1C2CC3CC1C[C@](C(=O)NCC(N)=O)(C3)C2` came in with an IC50 of 90 µM.

In turn, `CC(C)(Oc1ccc(Cl)cc1)C(=O)N[C@H]1C2CC3CC1C[C@](C(=O)NCc1ccc(C(=O)NS(C)(=O)=O)cc1)(C3)C2` gave an IC50 of 10 µM. Then `CC(C)(Oc1ccc(F)cc1Cl)C(=O)N[C@H]1C2CC3CC1C[C@](c1nnn[nH]1)(C3)C2`, with 1.2 µM; and `CC(C)(Oc1ccccc1)C(=O)N[C@H]1C2CC3CC1C[C@](C(=O)O)(C3)C2`, with 1.5 µM.

The record behind these values is ChEMBL document CHEMBL1138420, “Discovery of adamantane ethers as inhibitors of 11beta-HSD-1: Synthesis and biological evaluation” (Bioorg Med Chem Lett, 2007).
